These results are taken from paper PMC2989642 (The European journal of neuroscience, 2010).

Chains of the proteins cited; added tags and fusions are not shown. Residues count along the entry.
UniProt Q8R493, 21-495: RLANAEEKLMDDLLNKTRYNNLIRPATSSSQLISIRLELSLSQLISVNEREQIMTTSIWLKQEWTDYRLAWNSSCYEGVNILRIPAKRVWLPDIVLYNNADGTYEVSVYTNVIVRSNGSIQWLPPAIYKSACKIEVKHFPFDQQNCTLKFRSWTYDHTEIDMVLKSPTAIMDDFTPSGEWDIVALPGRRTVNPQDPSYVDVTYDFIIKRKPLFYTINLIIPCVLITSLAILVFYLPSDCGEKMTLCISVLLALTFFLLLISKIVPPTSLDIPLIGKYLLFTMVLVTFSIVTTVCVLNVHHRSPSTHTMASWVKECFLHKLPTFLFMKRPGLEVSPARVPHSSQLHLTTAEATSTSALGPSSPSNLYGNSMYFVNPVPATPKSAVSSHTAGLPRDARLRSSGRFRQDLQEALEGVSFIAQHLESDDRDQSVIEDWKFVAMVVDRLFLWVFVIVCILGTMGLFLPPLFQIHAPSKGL
UniProt Q8R4G9, 26-499: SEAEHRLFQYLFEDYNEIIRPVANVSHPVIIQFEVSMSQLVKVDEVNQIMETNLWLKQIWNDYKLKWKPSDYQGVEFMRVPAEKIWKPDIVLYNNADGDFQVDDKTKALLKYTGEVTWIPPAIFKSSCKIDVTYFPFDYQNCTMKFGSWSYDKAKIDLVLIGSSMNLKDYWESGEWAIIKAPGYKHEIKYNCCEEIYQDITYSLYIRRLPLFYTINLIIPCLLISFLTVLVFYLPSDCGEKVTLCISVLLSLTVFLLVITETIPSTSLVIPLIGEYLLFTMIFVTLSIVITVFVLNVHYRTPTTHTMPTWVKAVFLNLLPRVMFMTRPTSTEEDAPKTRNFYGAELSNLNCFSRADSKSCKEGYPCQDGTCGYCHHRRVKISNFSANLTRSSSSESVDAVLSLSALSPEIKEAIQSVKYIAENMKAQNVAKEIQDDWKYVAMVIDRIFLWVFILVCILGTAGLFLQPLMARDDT

Broadly, the Hill coefficient is the slope factor of the fitted curve.

The target in the assay is α3β4 receptors (in the α5β2 KO) (Mus musculus, UniProt Q8R493+Q8R4G9). Type of assay: cell-based.

Molecules are shown by their SMILES.

With `CN1CCC[C@H]1c1cccnc1` [Nicotine, nicotine], the Hill coefficient is listed as 1.68 ± 0.06.
